## Ab-14 heavy chain CDR variants: yeast mating affinities

Antigen: PDVDLGDISGINAS, a 14-residue peptide of the SARS-CoV-2 spike HR2 region.

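The parent was found by panning a naive human phage display library on the peptide. The library (AAYL49) carries one to three amino acid substitutions per variant, with no insertions or deletions. The scFvs were displayed on barcoded MATa yeast, the peptide on MATalpha yeast. Mating (16 h, 30 °C) was followed by selection of diploids and sequencing of their barcodes. Each replicate has its own calibration line, from reference interactions of the BCL2 family. Mating was done three times.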

The variants keep the light chain, the linker and the frameworks of Ab-14 (scFv order VH, the linker GGGGSGGGGSGGGGS, VL).
VH: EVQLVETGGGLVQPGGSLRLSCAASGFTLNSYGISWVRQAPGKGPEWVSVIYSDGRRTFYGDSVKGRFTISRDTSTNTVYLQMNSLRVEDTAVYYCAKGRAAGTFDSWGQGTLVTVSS
VL: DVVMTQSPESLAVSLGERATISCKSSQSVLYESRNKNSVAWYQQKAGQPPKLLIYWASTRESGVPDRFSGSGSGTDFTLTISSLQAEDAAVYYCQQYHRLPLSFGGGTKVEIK

Substitutions are numbered in sequence along the VH above, starting at 1 (not Kabat). Every variant below is changed at S63 of the VH (sequential numbering). Values are apparent Kd, the geometric mean of the replicates that gave a signal; lower means stronger binding. "no signal" means that the variant was in the library but no mating with the target was seen in any replicate; the authors take this as a sign of poor binding, and no number exists.

For S63G A102T S107M, the assay gave 480 nM (2 of 3 replicates). The variant G26W S63I showed no signal (0 of 3 replicates). The variant T58V S63R R100D gave 3.9 nM (3 of 3 replicates). The variant Y32R D54F S63H gave 3.7 µM (1 of 3 replicates). For T28Q D62A S63A, the assay gave no signal (0 of 3 replicates). For I34Q S63M F105Y, the assay gave no signal (0 of 3 replicates). For N30K S31I S63V, the assay gave no signal (0 of 3 replicates).

For G61F S63D A102W, the assay gave 11 µM (1 of 3 replicates). For T58P S63R V64P, the assay gave 6.4 µM (1 of 3 replicates). The variant S31W T58Y S63A gave no signal (0 of 3 replicates). The variant V50W S63M R100T showed 70 µM (1 of 3 replicates). The variant N30V D54V S63N showed no signal (0 of 3 replicates). With Y52K S53G S63K the result was no signal (0 of 3 replicates). With D54F S63F D106N the result was no signal (0 of 3 replicates).

For S53Y R57S S63E, the assay gave 19 µM (1 of 3 replicates). For G26M R57C S63N, the assay gave 20 µM (1 of 3 replicates). The variant G26H I51W S63Q gave no signal (0 of 3 replicates). The variant F59L S63V G99I showed no signal (0 of 3 replicates). For I34E S63L, the assay gave no signal (0 of 3 replicates). The variant I34A G61K S63E showed no signal (0 of 3 replicates). With F27N G33Y S63F the result was no signal (0 of 3 replicates).

The variant S63R D106H gave 71 nM (3 of 3 replicates). The variant L29H S63E gave 380 µM (1 of 3 replicates). The variant I34C Y60W S63P showed 16 µM (2 of 3 replicates). For R56A S63L, the assay gave 1.1 µM (3 of 3 replicates). The variant R56Q S63M V64H showed no signal (0 of 3 replicates). For S31D Y32I S63H, the assay gave 540 nM (3 of 3 replicates). The variant V50K I51T S63A showed 21 µM (2 of 3 replicates).

For G61Y S63L R100W, the assay gave no signal (0 of 3 replicates). For S63K A102K, the assay gave 3.7 nM (3 of 3 replicates). With F27L Y52N S63T the result was no signal (0 of 3 replicates). The variant S53N Y60N S63T showed 25 µM (1 of 3 replicates). For G26M S63W A102D, the assay gave 11 µM (2 of 3 replicates). The variant G26A T28Y S63R showed 390 nM (1 of 3 replicates). With I34M S63M D106R the result was no signal (0 of 3 replicates).

The variant S35Y R57E S63E showed 120 µM (3 of 3 replicates). The variant S53Y S63A K65Y showed 1.5 µM (2 of 3 replicates). The variant T28Q V50I S63V showed no signal (0 of 3 replicates). The variant S53M S63G R100V showed 12 µM (1 of 3 replicates). The variant S63V A102T G103R showed no signal (0 of 3 replicates). The variant S53V S63A V64M showed 24 µM (1 of 3 replicates). With S31D S63R T104L the result was 370 µM (3 of 3 replicates).

With Y32V S63C S107F the result was 44 µM (2 of 3 replicates). The variant L29F S35F S63R showed no signal (0 of 3 replicates). The variant S63F K65D showed 18 nM (3 of 3 replicates).

Background: pairings of library AAYL49 with three empty control strains gave a value in 15% of cases (median 11 µM, 5th percentile 680 nM). Values in that range, when seen in few replicates, are hard to tell from nonspecific mating. In this assay the parent's reference entry averaged 4.4 nM; its copy inside this library read 13 µM (one replicate of three).

Source: Engelhart et al. 2022 (doi:10.1038/s41597-022-01779-4), MIT Lincoln Laboratory and A-Alpha Bio; data file from the FLAb repository.